Experimental data taken from patent publication US6555547B1, “Method for treating a patient with neoplasia by treatment with a vinca alkaloid derivative” (Cell Pathways, Inc., priority 2000, dated 2003).
pIC50: −log10 of the molar value.

Protein sequences, listed by entry. Tags and fused reporters are not part of them.
UniProt O00408, whole entry: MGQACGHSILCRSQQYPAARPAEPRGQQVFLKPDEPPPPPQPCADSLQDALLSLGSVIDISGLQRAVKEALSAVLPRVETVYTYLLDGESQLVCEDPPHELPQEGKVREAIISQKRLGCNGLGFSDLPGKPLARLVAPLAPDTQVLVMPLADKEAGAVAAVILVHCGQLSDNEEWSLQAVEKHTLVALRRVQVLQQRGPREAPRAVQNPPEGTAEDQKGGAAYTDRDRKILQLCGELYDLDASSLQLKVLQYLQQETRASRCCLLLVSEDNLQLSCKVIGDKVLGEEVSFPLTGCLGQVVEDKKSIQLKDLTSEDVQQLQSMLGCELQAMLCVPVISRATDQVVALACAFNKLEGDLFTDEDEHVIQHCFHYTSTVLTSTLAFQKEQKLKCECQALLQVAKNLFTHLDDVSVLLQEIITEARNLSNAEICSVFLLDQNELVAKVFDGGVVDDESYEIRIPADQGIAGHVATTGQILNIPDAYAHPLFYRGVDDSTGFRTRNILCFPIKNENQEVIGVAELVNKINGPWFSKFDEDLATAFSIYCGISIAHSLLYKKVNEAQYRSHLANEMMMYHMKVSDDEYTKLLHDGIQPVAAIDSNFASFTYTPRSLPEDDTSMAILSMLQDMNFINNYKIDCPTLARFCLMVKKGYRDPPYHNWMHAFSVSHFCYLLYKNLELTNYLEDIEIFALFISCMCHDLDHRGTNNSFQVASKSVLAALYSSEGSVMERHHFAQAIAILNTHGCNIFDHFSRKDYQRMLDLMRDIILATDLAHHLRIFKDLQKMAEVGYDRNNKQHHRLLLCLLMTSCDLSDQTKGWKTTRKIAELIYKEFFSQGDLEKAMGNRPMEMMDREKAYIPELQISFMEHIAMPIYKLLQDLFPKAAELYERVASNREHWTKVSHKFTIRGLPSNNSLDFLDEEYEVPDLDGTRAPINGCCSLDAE

Target: T1, novel cGMP-specific PDE Peak B (Section IIB) from SW480 cells (Homo sapiens, UniProt O00408)
T1 construct: IC50 Peak B (μM); native enzyme
Experiment: Inhibition of cGMP hydrolysis by novel PDE Peak B from SW480
Format: biochemical

CCCc1nn(C)c2c(=O)[nH]c(-c3cc(S(=O)(=O)N4CCN(C)CC4)ccc3OCC)nc12 [Sildenafil, sildenafil]
pIC50: < 5.00
